Laboratory results published in publication PMC4556315.

Biological target: NO66^176–C mutant M2 fused to the SUMO tag (human) (UniProt Q9H6W3)
Test: ITC; 287 K; 40 µl GST-Rpl8^193–C (270 µM stock) injected into 15 µM NO66 protein in buffer D (50 mM Tris-HCl pH 7.5, 300 mM NaCl, 20 µM NiCl2) with 60 µM αKG; one-site binding model

GST-Rpl8^193–C (from UniProt P62917 193-257) (domain or fragment)
Kd: 4.67 µM
